Key:
[1] = biological target: T1, Peroxisome proliferator-activated receptor delta (Homo sapiens, UniProt Q03181)
T1 sequence (Q03181 whole entry): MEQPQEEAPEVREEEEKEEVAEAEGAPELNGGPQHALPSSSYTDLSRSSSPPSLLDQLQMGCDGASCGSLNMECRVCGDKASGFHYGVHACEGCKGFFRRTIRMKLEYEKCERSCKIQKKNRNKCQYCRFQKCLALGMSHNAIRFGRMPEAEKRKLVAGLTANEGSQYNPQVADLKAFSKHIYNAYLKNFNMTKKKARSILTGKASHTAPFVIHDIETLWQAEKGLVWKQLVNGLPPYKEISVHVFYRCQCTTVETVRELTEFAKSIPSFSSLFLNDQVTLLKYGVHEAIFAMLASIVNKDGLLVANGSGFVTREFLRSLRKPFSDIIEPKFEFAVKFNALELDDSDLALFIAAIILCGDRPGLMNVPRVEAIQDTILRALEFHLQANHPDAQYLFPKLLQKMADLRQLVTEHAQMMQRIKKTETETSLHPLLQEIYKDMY

[2] = biological target: T1, Peroxisome proliferator-activated receptor delta; remark: listed apart in the source

In the case of CCCc1cc(Oc2ccccc2)ccc1OCCCOc1cccc(C2SC(=O)NC2=O)c1 (configuration not stated), the EC50 [1] is reported as greater than 3 µM and the IC50 [2] is reported as greater than 10 µM.
